Values quoted from earlier work, collected in patent US7220743B2 (dated 2007).

Sequences of proteins named here, by UniProt entry; tags and fusion partners are left off.
UniProt P47746, whole entry: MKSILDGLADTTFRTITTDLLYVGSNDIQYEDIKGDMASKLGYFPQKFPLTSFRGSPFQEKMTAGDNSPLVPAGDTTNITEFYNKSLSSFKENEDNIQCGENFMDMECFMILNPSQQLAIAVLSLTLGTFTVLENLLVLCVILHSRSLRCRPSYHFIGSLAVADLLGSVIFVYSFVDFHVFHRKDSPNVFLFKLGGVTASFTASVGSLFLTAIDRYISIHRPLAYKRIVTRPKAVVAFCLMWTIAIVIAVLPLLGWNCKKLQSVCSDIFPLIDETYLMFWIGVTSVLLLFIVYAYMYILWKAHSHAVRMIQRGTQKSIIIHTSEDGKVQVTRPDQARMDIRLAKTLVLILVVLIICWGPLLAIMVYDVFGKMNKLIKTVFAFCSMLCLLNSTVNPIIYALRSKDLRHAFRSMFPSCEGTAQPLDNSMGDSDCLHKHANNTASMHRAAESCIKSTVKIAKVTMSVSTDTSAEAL

Molecular target: CB1 receptor (Mus musculus, UniProt P47746)
Conditions: wild-type but not knockout mice, after temporary food restriction; cited from earlier work

In the case of `Cc1c(C(=O)NN2CCCCC2)nn(-c2ccc(Cl)cc2Cl)c1-c1ccc(Cl)cc1` [SR-141716], the food intake is listed as “reduces food intake in wild-type but not knockout mice”.
